Data taken from the NIST ThermoML archive (doi:10.1016/j.jct.2009.06.011).
± gives the expanded uncertainty stated by the source.

Assay: activity coefficient (dimensionless); of the first substance listed, at infinite dilution; xn = mol fraction of the nth substance listed
Conditions: 101 kPa, Liquid, Chromatography, x1 = 0

CCCCOCCCC [dibutyl ether] + CCCC[n+]1ccc(C)cc1.O=S(=O)([N-]S(=O)(=O)C(F)(F)F)C(F)(F)F
activity coefficient (298.15 K): 9.79 ± 0.67
activity coefficient (308.15 K): 9.38 ± 0.64
activity coefficient (318.15 K): 8.98 ± 0.61
activity coefficient (328.15 K): 8.64 ± 0.59
activity coefficient (338.15 K): 8.32 ± 0.57
activity coefficient (348.15 K): 8.02 ± 0.55
activity coefficient (358.15 K): 7.76 ± 0.53
activity coefficient (368.15 K): 7.52 ± 0.51
